What is called Ki is a measure of affinity in units of concentration, obtained from inhibition or displacement. A high value points to lower affinity.

Protein sequences, listed by entry. Tags and fused reporters are not part of them. Residues count along the entry.
UniProt P98170, 241-356: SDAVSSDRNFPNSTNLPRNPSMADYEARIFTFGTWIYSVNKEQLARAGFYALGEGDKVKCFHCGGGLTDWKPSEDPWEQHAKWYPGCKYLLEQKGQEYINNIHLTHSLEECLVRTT

In this assay the target is XIAP BIR3 (Homo sapiens, UniProt P98170). Description: biochemical.

Consider `CC[C@H](N)C(=O)N[C@H]1CCC[C@H]2CC[C@@H](C(=O)NC(c3ccccc3)c3ccccc3)N2C1=O` [Compound 34], for which the Ki runs as follows: (Ki) 0.02 µM; (Ki (μM), Table 4, [5.3.0] bicyclic lactam system) 0.02 ± 0.007 µM; (Ki (μM), Table 5) 0.022 µM; (Ki, 5 nM SM5F and 0.030 μM XIAP-BIR3 protein) 0.02 µM.

Source of the values: patent US7674787B2, “Conformationally constrained Smac mimetics and the uses thereof” (The Regents of the University of Michigan, priority 2004, dated 2010).
